Literature values, collected in patent US7964359B2, “Compositions and methods for the enhancement of soluble amyloid beta oligomer (ADDL) uptake and clearance” (Acumen Pharmaceuticals, Inc., priority 2006, dated 2011).

The chains behind the UniProt entries cited, without tags or fusion partners.
UniProt P37231, whole entry, species assumed: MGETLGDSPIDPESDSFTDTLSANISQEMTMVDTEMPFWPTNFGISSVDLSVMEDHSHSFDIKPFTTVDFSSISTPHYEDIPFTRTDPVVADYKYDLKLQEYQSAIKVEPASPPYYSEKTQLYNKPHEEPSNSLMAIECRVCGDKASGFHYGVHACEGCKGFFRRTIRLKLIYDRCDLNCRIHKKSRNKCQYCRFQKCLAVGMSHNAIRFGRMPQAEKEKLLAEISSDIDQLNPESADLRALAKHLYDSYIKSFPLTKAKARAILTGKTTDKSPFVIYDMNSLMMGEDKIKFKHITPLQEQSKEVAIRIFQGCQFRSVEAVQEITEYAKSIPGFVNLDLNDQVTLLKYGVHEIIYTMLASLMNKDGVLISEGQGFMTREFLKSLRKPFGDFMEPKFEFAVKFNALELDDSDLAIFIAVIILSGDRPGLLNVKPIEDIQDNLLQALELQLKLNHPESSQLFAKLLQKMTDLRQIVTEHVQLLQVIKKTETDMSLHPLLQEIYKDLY

Target: PPARγ (Homo sapiens, UniProt P37231)
Details: cell types transfected with PPARγ; cited from earlier work

rosiglitizone
clearance of exogenously added Aβ from the media: activate rapid and efficient clearance of exogenously added Aβ from the media
